Experimental data from PubChem BioAssay AID1700 (The Scripps Research Institute Molecular Screening Center, 2009).
The entries are a selection whose mix differs from that of the whole data set. Some results for these compounds are left out of this collection, so the calls shown say nothing about other tests. Activity calls are given as the source filed them.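 How the source made its calls: active means inhibition above a per-plate limit of that plate's mean compound inhibition plus 3 SD (cut at about 60% in these data); inactive means the rest.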

Assay: suppression of KLF5 promoter-driven luciferase – DLD-1 cells, luminescence, primary screen (AID 1700);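 further: 0% = DMSO wells and 100% = LY294002 at 200 µM; higher means less KLF5 promoter-driven luciferase light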
Conditions: DLD-1 KLF5 promoter-luciferase reporter, at 5 µM, stronger effect = higher value

Row | Structure (SMILES) | inhibition
1 | COc1cccc(C(=O)NCC2(N3CCCCC3)CCCCC2)c1 | inactive: -13.1%
2 | COc1ccc(Cl)cc1C(=O)NCC1(N(C)C)CCCCC1 | inactive: -6.16%
3 | O=C(NCC1(N2CCCCC2)CCCCC1)c1cccc(Cl)c1 | inactive: -9.73%
4 | CN(C)C1(CNC(=O)c2ccc(Br)cc2)CCCCC1 | inactive: -25.1%
5 | COc1cc(C(=O)NCC2(N(C)C)CCCCC2)c([N+](=O)[O-])cc1OC | inactive: -4.28%
6 | COc1ccc(Br)c(C(=O)NCC2(N3CCCCC3)CCCCC2)c1 | inactive: -2.38%
7 | CC(C)Oc1ccc(C(=O)NCC2(N(C)C)CCCCC2)cc1 | inactive: 3.49%
8 | CN(C)c1cccc(C(=O)NCC2(N(C)C)CCCCC2)c1 | inactive: -9.46%
9 | O=C(OC1CN2CCC1CC2)C(CO)(c1ccccc1)c1ccccc1 (centres undefined) | inactive: -21.6%
10 | CCN(CC)CC(C)C(C)OC(=O)C(O)(c1ccccc1)c1ccccc1 (centres undefined) | inactive: -11%
11 | COc1cc(SC)ccc1C(=O)NCC1(N(C)C)CCCCC1 | inactive: -17.3%
12 | CC(C)N1C(=O)CC2(CCN(CCOC(=O)C(O)(c3ccccc3)c3ccccc3)CC2)C1=O | inactive: 14.3%
13 | Cc1ccc(C(=O)NCC2(N3CCCCC3)CCCCC2)cc1 | inactive: 24.7%
14 | O=C(NCC1(N2CCCCC2)CCCCC1)c1cc([N+](=O)[O-])ccc1Cl | inactive: -25%
15 | CN1[C@@H]2CC[C@H]1CC(OC(=O)C(O)(c1ccccc1)c1ccccc1)C2 (some centres undefined) | inactive: -27.2%
16 | C=CCN1CCN(CCOC(=O)C(O)(c2ccccc2)c2ccccc2)CC1 | inactive: -3.39%
17 | O=C(NCC1(N2CCCCC2)CCCCC1)c1cc(F)c(F)cc1Cl | inactive: 2.43%
18 | COc1ccc(C(=O)NCC2(N(C)C)CCCCC2)cc1 | inactive: -25.1%
19 | CCN1CCCC(OC(=O)C2(O)c3ccccc3C=Cc3ccccc32)C1 (centres undefined) | inactive: -6.29%
20 | Cc1cc(C(=O)NCC2(N3CCCCC3)CCCCC2)ccc1[N+](=O)[O-] | inactive: 26.9%
21 | O=C(NCC1(N2CCCCC2)CCCCC1)c1cccc(Br)c1 | inactive: -23.1%
22 | Cc1ccccc1C(=O)NCC1(N2CCCCC2)CCCCC1 | inactive: 0.27%
23 | CN(C)c1ccc(C(=O)NCC2(N(C)C)CCCCC2)cc1 | inactive: -36.9%
24 | CN(C)C1CCCC1OC(=O)C(O)(c1ccccc1)c1ccccc1 (centres undefined) | inactive: -29.1%
